This is an account of results in US5837718A, “Imidazole-derivatives having agonistic or antagonistic activity on the histamine H3-receptor” (Seed Capital Investment (SCI) B.V., priority 1995, dated 1998).

Amino acid sequences for entries named in this document (tags omitted). A change or cut given only in a name is not applied to a line headed by its entry.
UniProt Q9QYN8: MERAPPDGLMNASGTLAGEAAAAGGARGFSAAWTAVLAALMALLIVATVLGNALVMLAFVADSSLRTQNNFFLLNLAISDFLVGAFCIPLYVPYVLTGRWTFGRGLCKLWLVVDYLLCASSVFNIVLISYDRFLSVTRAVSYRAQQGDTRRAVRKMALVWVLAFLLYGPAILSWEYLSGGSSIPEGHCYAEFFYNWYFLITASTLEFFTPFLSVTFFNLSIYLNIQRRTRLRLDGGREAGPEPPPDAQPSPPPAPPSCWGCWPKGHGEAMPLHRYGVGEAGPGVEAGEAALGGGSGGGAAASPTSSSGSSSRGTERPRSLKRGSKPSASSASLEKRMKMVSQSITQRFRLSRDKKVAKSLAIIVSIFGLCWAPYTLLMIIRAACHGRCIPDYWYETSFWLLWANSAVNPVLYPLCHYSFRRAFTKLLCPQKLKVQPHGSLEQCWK

This experiment deals with T1, histamine H3 -receptor (Rattus norvegicus, UniProt Q9QYN8).
T1 construct: Van der Werf et al., Agents and Actions 20, 3/4 (1987) p; 239-243; from tissue
Put plainly: Agonistic activity on the H3-receptor, rat cortex. Format: cell-based. Particulars: Table 3, agonistic activity, read-out: pD2 (converted).

As for `N=C(N)SCCc1cnc[nH]1` [VUF 8325, S-[2-(4-imidazolyl)ethyl]isothiourea], the EC50 is 0.501 nM.
